In ChEMBL document CHEMBL5726139, “Heterocyclic compounds and methods of their use” (2017) one finds IC50 data, which are given here for 1 molecule.

This test addresses T1, Type-2 angiotensin II receptor (Homo sapiens, UniProt P50052).
T1 sequence (P50052 whole entry): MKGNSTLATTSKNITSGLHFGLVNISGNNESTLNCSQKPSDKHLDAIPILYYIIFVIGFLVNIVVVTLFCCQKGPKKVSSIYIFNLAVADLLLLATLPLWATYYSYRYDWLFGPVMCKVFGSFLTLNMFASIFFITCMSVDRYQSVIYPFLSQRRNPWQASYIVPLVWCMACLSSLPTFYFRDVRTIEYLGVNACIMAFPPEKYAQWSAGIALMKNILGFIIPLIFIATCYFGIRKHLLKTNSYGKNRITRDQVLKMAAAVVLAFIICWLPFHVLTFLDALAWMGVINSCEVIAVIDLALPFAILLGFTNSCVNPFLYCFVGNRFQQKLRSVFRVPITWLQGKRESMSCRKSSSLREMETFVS
The test is described as follows: Receptor Binding Assay: 120 μL membrane ([…]) was incubated with 15 μL of [125I]-CGP42112A and 15 μL of compound at RT for 1.5 hrs. The binding reaction was stopped by rapid filtration through Unifilter GF/C plates (presoaked in 0.3% (v:v) BSA). Plate was washed three times with ice cold wash buffer. The filtration plates were dried at 37° C. overnight. 50 μL of scintillation cocktail was added to each well. Radioactivity was determined using MicroBetaTriluxmicroplate scintillation counter.

Broadly, the IC50 is the point on the concentration scale where inhibition reaches its midpoint. In the case of `O=C(O)[C@@H]1C[C@H](OCCCc2ccccc2)CN1C(=O)C(c1ccccc1)c1ccccc1`, the IC50 is 181 nM.
